Assays:
Recombinant human IL-1β [1] = target: T1, Recombinant human IL-1β (human, UniProt P01584 117-269); experiment: SET, simultaneous target binding, Assay B (both targets in serial dilutions in one mix)
T1 construct: also called huIL-1β; IL-1b
Method: (§1) The plate was blocked with 50 μl/well blocking buffer (PBS containing 5% BSA) for 1 hour (h), at room temperature (RT). After washing (TBST, TBS containing 0.05% Tween 20), a volume of 30 μl/well of the equilibrated antigen- antibody mix was transferred from the polypropylene MTP to the coated MSD plate and incubated for 20 min at RT. After an additional wash step, 30 μl sulfo tag-labeled anti-IgG detection antibody (0.5 μg/ml) diluted in sample buffer were added to each well and incubated for 30 min at RT on a shaker. The MSD plate was washed and 35 μl/well MSD read buffer were added and incubated for 5 min at RT. Electrochemiluminescence (ECL) signals were generated and measured by the MSD Sector Imager 6000.
(§2) Assay B: The equilibration process (antibody/antigen mix) was performed with both targets in serial dilutions in one mix simultaneously (constant concentration of antibody […], highest antigen conc. see above). The same mix was then analyzed for its free antibody concentration on IL18 and IL-1β coated plates as described above.

[2] = target: T2, Recombinant marmoset IL-1β (marmoset, UniProt U3E018 117-268); experiment: as above
T2 construct: also called marIL-1β
Method: as §1, §2

Recombinant human IL-18 [3] = target: T3, Recombinant human IL-18 (human, UniProt Q14116 37-193); experiment: as above
T3 construct: also called huIL-18; hulL-18
Method: as §1, §2

[4] = target: T4, Recombinant marmoset IL-18 (marmoset, UniProt U3CWC9 37-190); experiment: as above
T4 construct: also called marIL-18
T4 sequence: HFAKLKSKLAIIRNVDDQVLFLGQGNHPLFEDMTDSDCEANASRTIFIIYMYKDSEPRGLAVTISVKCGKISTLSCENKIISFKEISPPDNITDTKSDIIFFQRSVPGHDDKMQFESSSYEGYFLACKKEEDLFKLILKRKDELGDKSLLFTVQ
Method: as §1, §2

Recombinant human IL-18 [5] = target: T3, Recombinant human IL-18; experiment: cell-based or functional assay
Recombinant human IL-18 [6] = target: T3, Recombinant human IL-18; experiment: SET, simultaneous target binding, Assay A (excess of the other target, IL-1β)
Method: as §1, §2

[7] = target: T4, Recombinant marmoset IL-18; experiment: as above
Method: as §1, §2

[8] = target: T2, Recombinant marmoset IL-1β; experiment: cell-based or functional assay
Recombinant human IL-1β [9] = target: T1, Recombinant human IL-1β; experiment: cell-based or functional assay
Recombinant human IL-1β [10] = target: T1, Recombinant human IL-1β; experiment: SET (solution equilibrium titration, MSD ECL), individual target binding
Method: as §1

[11] = target: T2, Recombinant marmoset IL-1β; experiment: as above
Method: as §1

Recombinant human IL-18 [12] = target: T3, Recombinant human IL-18; experiment: as above
Method: as §1

[13] = target: T4, Recombinant marmoset IL-18; experiment: as above
Method: as §1

Recombinant human IL-1β [14] = target: T1, Recombinant human IL-1β; experiment: SET, simultaneous target binding, Assay A (excess of the other target, IL-18)
Method: as §1, §2

[15] = target: T2, Recombinant marmoset IL-1β; experiment: as above
Method: as §1, §2

Recombinant human IL-1β [16] = target: T1, Recombinant human IL-1β; experiment: cell-based or functional assay; remark: listed apart in the source
Recombinant human IL-18 [17] = target: T3, Recombinant human IL-18; experiment: cell-based or functional assay; remark: listed apart in the source
[18] = target: T4, Recombinant marmoset IL-18; experiment: cell-based or functional assay

Kd (Recombinant human IL-1β [1]): 0.0005 nM | Kd [2]: 0.0006 nM | Kd (Recombinant human IL-18 [3]): 0.0195 nM | Kd [4]: 0.0442 nM | IFNγ prod. KG-1 cells IC50 (3 nM recombinant human IL-18 and 1 ng/ml human IL-12) (Recombinant human IL-18 [5]): 0.071 nM | IFNγ prod. PBMC IC50 (3 nM recombinant human IL-18 and 1 ng/ml human IL-12) (Recombinant human IL-18 [5]): 0.87 nM | Kd (Recombinant human IL-18 [6]): 0.0148 nM | Kd [7]: 0.0479 nM | IL-6 prod. dermal fibroblasts IC50, Exp. B (18 pM recombinant marmoset IL-1β; marmoset cells by the reading of the header) [8]: 0.364 nM | IL-6 prod. dermal fibroblasts IC50, Exp. C (18 pM recombinant marmoset IL-1β; human cells by the reading of the header) [8]: 0.22 nM | IL-6 prod. marmoset dermal fibroblasts IC50, Exp. A (18 pM recombinant marmoset IL-1β) [8]: 0.174 nM | IL-6 prod. PBMC IC50 (human PBMC stimulated with 60 pM recombinant human IL-1β) (Recombinant human IL-1β [9]): 1.35 nM | IL-6 prod. derm. fibrobl. IC50 (human dermal fibroblasts stimulated with 6 pM recombinant human IL-1β) (Recombinant human IL-1β [9]): 0.136 nM | Kd (Recombinant human IL-1β [10]): 0.0026 nM | Kd [11]: 0.003 nM | Kd (Recombinant human IL-18 [12]): 0.012 nM | Kd [13]: 0.033 nM | Kd (Recombinant human IL-1β [14]): 0.003 nM | Kd [15]: 0.002 nM | Inhibition of SEAP in HEK reporter cells stimulated simultaneously with IL-1β and IL-18, IC50 (Recombinant human IL-1β [16]): 0.71 nM | Inhibition of SEAP in HEK reporter cells stimulated simultaneously with IL-1β and IL-18, IC50 (Recombinant human IL-18 [17]): 0.71 nM | IFNγ prod. Marmoset blood IC50 (marmoset IL-18 1 nM and human IL-12 10 ng/ml) [18]: 10 nM
B1: bbmAb1, bispecific IgG1 with LALA silencing mutations, knob-into-hole, binding IL-1β and IL-18 (bispecific antibody)
heavy 1: not shown
light 1: not shown
heavy 2: not shown
light 2: EIVLTQSPDFQSVTPKEKVTITCRASQSIGSSLHWYQQKPDQSPKLLIKYASQSFSGVPSRFSGSGSGTDFTLTINSLEAEDAAAYYCHQSSSLPFTFGPGTKVDIKRTVAAPSVFIFPPSDEQLKSGTASVVCLLNNFYPREAKVQWKVDNALQSGNSQESVTEQDSKDSTYSLSSTLTLSKADYEKHKVYACEVTHQGLSSPVTKSFNRGEC
